Molecular target: 5-hydroxytryptamine receptor 7 (Rattus norvegicus, UniProt P32305)

Protein sequences, listed by entry. Tags and fused reporters are not part of them.
UniProt P32305, whole entry: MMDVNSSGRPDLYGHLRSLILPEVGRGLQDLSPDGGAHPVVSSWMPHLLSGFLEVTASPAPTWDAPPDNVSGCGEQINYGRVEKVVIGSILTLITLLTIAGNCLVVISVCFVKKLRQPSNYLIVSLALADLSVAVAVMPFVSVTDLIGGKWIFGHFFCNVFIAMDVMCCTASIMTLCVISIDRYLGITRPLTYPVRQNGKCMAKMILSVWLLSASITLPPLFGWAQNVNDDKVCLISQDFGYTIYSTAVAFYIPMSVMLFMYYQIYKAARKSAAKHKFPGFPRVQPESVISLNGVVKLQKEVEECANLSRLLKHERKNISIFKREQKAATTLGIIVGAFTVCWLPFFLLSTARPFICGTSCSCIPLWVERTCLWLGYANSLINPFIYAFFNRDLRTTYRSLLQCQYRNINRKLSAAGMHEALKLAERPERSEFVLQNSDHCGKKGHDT

Work on `CCN(CC)C(=O)[C@@H]1C=C2c3cccc4[nH]cc(c34)C[C@H]2N(C)C1` [(4R,7R)-N,N-diethyl-6-methyl-6,11-diazatetracyclo[7.6.1.0^{2,7}.0^{12,16}]hexadeca-1(16),2,9,12,14-pentaene-4-carboxamide] yielded a Ki of 9.5 nM.

Source: BindingDB's records for doi:10.1073/pnas.90.18.8547 (U. 109, 1993)
